In ChEMBL document CHEMBL1153911 (Bioorg Med Chem Lett, 2009):

Key:
[1] = species on record: Homo sapiens; assay: Selectivity ratio of Ki for mu opioid receptor to Ki for kappa opioid receptor
[2] = species on record: Homo sapiens; assay: Selectivity ratio of Ki for delta opioid receptor to Ki for kappa opioid receptor

## N=C(N)Nc1ccc2[nH]c3c(c2c1)C[C@@]1(O)[C@H]2Cc4ccc(O)c5c4[C@@]1(CCN2CC1CC1)[C@H]3O5
[1]
  Ratio Ki: 120
[2]
  Ratio Ki: 250
